ChEMBL document CHEMBL3085732, “Synthesis and pharmacological evaluation of aminothiazolomorphinans at the mu and kappa opioid receptors” (J Med Chem, 2013)

Sequences of proteins named here, by UniProt entry; tags and fusion partners are left off.
UniProt P35372, whole entry: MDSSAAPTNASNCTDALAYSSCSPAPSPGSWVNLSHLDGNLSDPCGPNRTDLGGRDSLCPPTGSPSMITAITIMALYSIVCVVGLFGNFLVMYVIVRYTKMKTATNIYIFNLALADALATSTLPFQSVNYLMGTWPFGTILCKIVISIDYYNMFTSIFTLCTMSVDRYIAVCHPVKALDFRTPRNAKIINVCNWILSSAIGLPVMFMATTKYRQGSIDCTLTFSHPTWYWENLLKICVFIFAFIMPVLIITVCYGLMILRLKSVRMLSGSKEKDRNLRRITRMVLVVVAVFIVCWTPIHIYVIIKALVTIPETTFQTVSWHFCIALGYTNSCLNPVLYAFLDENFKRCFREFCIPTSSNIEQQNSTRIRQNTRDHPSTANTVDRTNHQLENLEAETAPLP

Columns and labels:
Mu-type opioid receptor = Mu-type opioid receptor (Homo sapiens, UniProt P35372); experiment: Antagonist activity at human mu opioid receptor transfected in CHO cells assessed as inhibition of […] [35S]GTPgammaS binding after 60 mins by scintillation counting analysis relative to control; assay type: functional, cell-based
Homo sapiens = organism: Homo sapiens; experiment: Selectivity ratio of Ki for human delta opioid receptor to Ki for human kappa opioid receptor

SMILES	Imax (Mu-type opioid receptor)	Ratio Ki (Homo sapiens)
CNc1nc2cc3c(cc2s1)C[C@@H]1[C@@H]2CCCC[C@]32CCN1CC1CC1	inactive	–
CCNc1nc2cc3c(cc2s1)C[C@@H]1[C@@H]2CCCC[C@]32CCN1CC1CC1	inactive	–
Oc1ccc2c(c1)[C@@]13CCCC[C@H]1[C@@H](C2)N(CC1CCC1)CC3 [BUTORPHAN]	–	75

Activity calls are given as the source filed them. The rule behind the calls is not given here.
